We go through one compound from BindingDB's records for 7990111 (1995).

Sequences of proteins named here, by UniProt entry; tags and fusion partners are left off.
UniProt Q99720, whole entry, looked up: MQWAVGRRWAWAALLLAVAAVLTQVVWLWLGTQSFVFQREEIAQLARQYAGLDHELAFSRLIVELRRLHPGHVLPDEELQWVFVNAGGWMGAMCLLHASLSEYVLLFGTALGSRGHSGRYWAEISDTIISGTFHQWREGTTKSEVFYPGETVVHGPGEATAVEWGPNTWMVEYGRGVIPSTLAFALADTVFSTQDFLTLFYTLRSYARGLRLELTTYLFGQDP

In this assay the target is Sigma non-opioid intracellular receptor 1 (Homo sapiens, UniProt Q99720).

As to `O=C(CCCN1CCC2(CC1)C(=O)NCN2c1ccccc1)c1ccc(F)cc1`, the IC50 came to 955 nM.
